Data taken from patent US20210290732A1, “GLP-1R and GCGR Agonists, Formulations, and Methods of Use” (Spitfire Pharma LLC, priority 2020, published 2021).
Where two headings read alike, the source gives them in different places.

Experiment: 6-week repeat-dose toxicity and toxicokinetics in cynomolgus monkeys (once weekly SC)
Assay type: in vivo, cynomolgus monkey (Macaca fascicularis)
Conditions: cynomolgus monkey, plasma, subcutaneous, mean, monkey plasma
Procedure: The study was conducted by Covance.
Male and female cynomolgus monkeys (28 animals/sex; Macaca fascicularis) of Asian origin were received from Envigo Global Services Inc. (previously Covance Research Products) in Alice, Tex. Animals were acclimated to the test facility for at least 30 days prior to initiation.
Animals were dosed via subcutaneous injection into the dorsal region on Days 1, 8, 15, 22, 29, and 36 of the dosing phase at a volume of 2.0 mL/kg. The vehicle control article was F58 Formulation Buffer, which consisted of 0.050% (w/w) polysorbate 20, 0.348% (w/w) arginine, 4.260% (w/w) mannitol in deionized water (pH 7.7±0.1).
Assessment of toxicity was based on mortality, clinical observations, body weights, qualitative food consumption, ophthalmic observations, electrocardiographic (ECG) measurements, neurological examinations, qualitative respiration rates, and clinical and anatomic pathology. Blood samples were collected for toxicokinetic evaluations.
The dose sites were in the dorsal scapular region of each animal. Doses were rotated between the sites. The dose sites were as follows: Dose Site A: Upper left scapular region, Dose Site B: Upper right scapular region, Dose Site C: Lower left scapular region, Dose Site D: Lower right scapular region The following animals were not dosed due to body weight loss, body condition score, and veterinary recommendation on the days listed in the following table.
Body weights were recorded for animals four times during the predose phase, on Day −1 of the dosing phase (day prior to dose initiation), and weekly thereafter (based on Day −1) to Day 14 of the dosing phase. Starting on Day 14 of the dosing phase, body weights were collected twice weekly (based on Day 14) through to the end of the dosing phase. Body weights were collected on Days 1, 8, 15, 22, and 28 of the recovery phase. Data presented in FIG. 13 and FIG. 14 represent body weight change as a % of Day-1 in males and females respectively.

[1] = female, 0.06 mg/kg, Day 36, Group 3, 0.06 mg/kg, F
[2] = female, […], Day 1, Group 4, […], F
[3] = female, […], Day 1, Group 5, […], F
[4] = female, […], Day 36, Group 4, […], F
[5] = female, […], Day 36, Group 5, […], F
[6] = female, cynomolgus, 0.06 mg/kg, Day 1, Group 3, 0.06 mg/kg, F
[7] = male, 0.03 mg/kg, Day 1, Group 2, 0.03 mg/kg, M
[8] = male, 0.03 mg/kg, Day 36, Group 2, 0.03 mg/kg, M
[9] = male, 0.06 mg/kg, Day 36, Group 3, 0.06 mg/kg, M
[10] = male, […], Day 1, Group 4, […], M
[11] = male, […], Day 1, Group 5, […], M
[12] = male, […], Day 36, Group 4, […], M
[13] = male, […], Day 36, Group 5, […], M
[14] = male, cynomolgus, 0.06 mg/kg, Day 1, Group 3, 0.06 mg/kg, M

## CC[C@H](C)[C@H](NC(=O)[C@H](Cc1ccccc1)NC(=O)[C@H](CCC(=O)O)NC(=O)[C@@H]1CCCCNC(=O)CC[C@H](NC(=O)[C@H](CC(=O)O)NC(=O)[C@H](CC(C)C)NC(=O)[C@H](Cc2ccc(O)cc2)NC(=O)[C@H](CCCCN)NC(=O)[C@H](CO)NC(=O)[C@H](Cc2ccc(O)cc2)NC(=O)[C@H](CC(=O)O)NC(=O)[C@H](CO)NC(=O)[C@@H](NC(=O)[C@H](Cc2ccccc2)NC(=O)[C@@H](NC(=O)CNC(=O)[C@H](CCC(N)=O)NC(=O)C(C)(C)NC(=O)[C@@H](N)Cc2c[nH]cn2)[C@@H](C)O)[C@@H](C)O)C(=O)N[C@@H](CCCCNC(=O)[C@H]2O[C@@H](OCCCCCCCCCCCCCCCCCC(=O)O)[C@H](O)[C@@H](O)[C@@H]2O)C(=O)N[C@@H](C)C(=O)N[C@@H](C)C(=O)N1)C(=O)N[C@@H](CCC(N)=O)C(=O)N[C@@H](Cc1c[nH]c2ccccc12)C(=O)N[C@@H](CC(C)C)C(=O)N[C@@H](CC(C)C)C(=O)N[C@@H](CCC(N)=O)C(=O)N[C@H](C(N)=O)[C@@H](C)O [SEQ ID NO: 1]
female, 0.03 mg/kg, Day 36, Group 2, 0.03 mg/kg, F
  half-life: 60.4 h
female, 0.03 mg/kg, Day 36, Group 2, 0.03 mg/kg, F, read-out: AUC0-312
  AUC(0-t): 7210 ng·h/mL
female, 0.03 mg/kg, Day 36, Group 2, 0.03 mg/kg, F, read-out: AUC0-t
  AUC(0-t): 7110 ng·h/mL
female, 0.06 mg/kg, AUC0-168, Day 1, Group 3, 0.06 mg/kg, F
  AUC(0-t): 11600 ng·h/mL
female, 0.06 mg/kg, AUC0-168, Day 36, Group 3, 0.06 mg/kg, F
  AUC(0-t): 14200 ng·h/mL
female, 0.06 mg/kg, Day 1, Group 3, 0.06 mg/kg, F
  half-life: 55.9 h
[1]
  Cmax: 143 ng/mL
  Tmax: 48 h
  half-life: 62.2 h
female, 0.06 mg/kg, Day 36, Group 3, 0.06 mg/kg, F, read-out: AUC0-312
  AUC(0-t): 16100 ng·h/mL
female, 0.06 mg/kg, Day 36, Group 3, 0.06 mg/kg, F, read-out: AUC0-t
  AUC(0-t): 16100 ng·h/mL
[2]
  Tmax: 48 h
  half-life: 62.3 h
[3]
  Tmax: 48 h
  half-life: 59.4 h
[4]
  Tmax: 48 h
  half-life: 61.2 h
[5]
  Tmax: 48 h
  half-life: 63.2 h
[6]
  Cmax: 107 ng/mL
  Tmax: 48 h
female, cynomolgus, 0.06 mg/kg, Day 1, Group 3, 0.06 mg/kg, F, read-out: AUC0-t
  AUC(0-t): 11600 ng·h/mL
male, 0.03 mg/kg, AUC0-168, Day 1, Group 2, 0.03 mg/kg, M
  AUC(0-t): 6070 ng·h/mL
male, 0.03 mg/kg, AUC0-168, Day 36, Group 2, 0.03 mg/kg, M
  AUC(0-t): 6520 ng·h/mL
[7]
  Cmax: 59.9 ng/mL
  Tmax: 48 h
  half-life: 56.9 h
male, 0.03 mg/kg, Day 1, Group 2, 0.03 mg/kg, M, read-out: AUC0-t
  AUC(0-t): 6070 ng·h/mL
[8]
  Cmax: 64.1 ng/mL
  Tmax: 48 h
  half-life: 50.9 h
male, 0.03 mg/kg, Day 36, Group 2, 0.03 mg/kg, M, read-out: AUC0-312
  AUC(0-t): 8080 ng·h/mL
male, 0.03 mg/kg, Day 36, Group 2, 0.03 mg/kg, M, read-out: AUC0-t
  AUC(0-t): 7890 ng·h/mL
male, 0.06 mg/kg, AUC0-168, Day 36, Group 3, 0.06 mg/kg, M
  AUC(0-t): 12600 ng·h/mL
[9]
  Cmax: 137 ng/mL
  Tmax: 24 h
  half-life: 58.4 h
male, 0.06 mg/kg, Day 36, Group 3, 0.06 mg/kg, M, read-out: AUC0-312
  AUC(0-t): 14700 ng·h/mL
male, 0.06 mg/kg, Day 36, Group 3, 0.06 mg/kg, M, read-out: AUC0-t
  AUC(0-t): 14500 ng·h/mL
[10]
  Tmax: 48 h
  half-life: 60.4 h
[11]
  Tmax: 24 h
  half-life: 69 h
[12]
  Tmax: 24 h
  half-life: 63.4 h
[13]
  Tmax: 48 h
  half-life: 60.7 h
male, cynomolgus, 0.06 mg/kg, AUC0-168, Day 1, Group 3, 0.06 mg/kg, M
  AUC(0-t): 8990 ng·h/mL
[14]
  Cmax: 91.9 ng/mL
  Tmax: 48 h
  half-life: 51 h
male, cynomolgus, 0.06 mg/kg, Day 1, Group 3, 0.06 mg/kg, M, read-out: AUC0-t
  AUC(0-t): 8990 ng·h/mL
